Source: US20240206463A1, “AGROCHEMICAL COMPOSITION” (NOURYON CHEMICALS INTERNATIONAL B.V., priority 2021, published 2024)

Assay: Diluents lowering the melting point of pelargonic acid: visual appearance (crystal/clear) of pelargonic acid/diluent blends at low temperature
[1] = pelargonic acid 30 wt % + diluent 70 wt %
[2] = pelargonic acid 50 wt % + diluent 50 wt %
[3] = pelargonic acid 70 wt % + diluent 30 wt %
[4] = pelargonic acid 80 wt % + diluent 20 wt %, printed in the 0° C. column

CCCCCCO [Hexanol]
appearance at 0° C. [1]: Clear | appearance at −20° C. [1]: Clear | appearance at 0° C. [2]: Clear | appearance at −20° C. [2]: Crystal | appearance at 0° C. [3]: Clear | appearance at −20° C. [3]: Crystal | appearance at −20° C. (pelargonic acid 80 wt % + diluent 20 wt %): Crystal | appearance at 5° C. [4]: Crystal at 5 °C | appearance at 10° C. [4]: clear at 10 °C
